What was measured:
[1] = test system: cellular microtubules in A-10 cells; experiment: Loss of cellular microtubules, indirect immunofluorescence in A-10 cells; type: cell-based
physchem = conditions: water

COc1ccc(N(C)c2nc(C)nc3oc(C)cc23)cc1 [Compound 11, N-(4-methoxyphenyl)-N,2,6-trimethylfuro[2,3-d]pyrimidin-4-amine]
effect on cellular microtubules [1]: dose-dependent loss of cellular microtubules

COc1ccc(N(C)c2nc(C)nc3oc(C)cc23)cc1.Cl [Compound 21, N-(4-methoxyphenyl)-N,2,6-trimethylfuro[2,3-d]pyrimidin-4-amine hydrochloride]
solubility (physchem): > 1000 mg/mL
